# Yeast mating assay B: variants of the scFv Ab-14

Target: peptide PDVDLGDISGINAS, taken from heptad repeat 2 (HR2) of SARS-CoV-2 spike.

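The parent was found by panning a naive human phage display library on the peptide. This is the validation round: designs drawn from the data on random variants, tested in the same kind of assay. Several design methods are mixed in this list. The scFvs were displayed on barcoded MATa yeast, the peptide on MATalpha yeast. Binding brings cells together so that they mate, and sequencing counts the barcode pairs among the diploids. Scores were corrected for input abundance and mapped to Kd with protein pairs of known affinity run in the same pool. Mating was done six times.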

Parent: Ab-14, a human scFv built as VH, three GGGGS repeats, VL. Only the CDRs of the light chain vary.
VH: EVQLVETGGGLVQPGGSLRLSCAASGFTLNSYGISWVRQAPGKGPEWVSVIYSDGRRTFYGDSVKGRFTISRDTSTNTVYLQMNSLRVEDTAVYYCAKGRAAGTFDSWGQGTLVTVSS
VL: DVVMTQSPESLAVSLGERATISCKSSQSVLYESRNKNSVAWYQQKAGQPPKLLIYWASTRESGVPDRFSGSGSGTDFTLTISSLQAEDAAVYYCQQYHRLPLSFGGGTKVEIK

Variants are written as CDR1, CDR2 and CDR3 of the light chain (limits as in the source). Parent: KSSQSVLYESRNKNSVA, WASTRES, QQYHRLPLS. Scale: log10 of Kd in nM, estimated from mating counts; low values are strong binders. Replicates are averaged; those with no signal do not enter the mean. "no signal" marks a missing value. The strain was present, yet no cells mated with the target were sequenced in any replicate, which points to weak or no binding. The list is sorted by this average, lowest first, undetected variants last.

CDR-L1,CDR-L2,CDR-L3,mean log10 Kd (nM),seen in,signal with controls
KLSQSVMYESRNPNSVA,NASTRES,QQYHRLPLS,-0.40,6/6,0/18
KFSQSVLYESRNKNSVA,HASQRES,QQYHRLPLS,-0.37,6/6,1/18
KLEQSWGYESRNKNSVA,NASTRES,QQYHRLPLS,-0.34,6/6,1/18
IMSDSQERDASRLRNIA,DQTTRAM,QQYARLPLS,-0.30,6/6,1/18
KLSQSVEYESRNKNSVA,EASTREV,QQYHRLPLS,-0.26,6/6,1/18
KYSQSVLYESRNKNSVA,NASTRES,QQYHRLPLS,-0.24,6/6,1/18
KLSQSQLYESRNKNSVA,NASQREE,QQYHRLPLS,-0.15,6/6,0/18
KISQEYLGESRNMNSVA,NASTREA,QQYHRLPLS,-0.14,6/6,0/18
KFSQSVLYEDRTSNSVA,NASTRES,QQYHRLPLS,-0.08,6/6,0/18
KVSVSQPYETRNKNSVA,EASTREE,QQYHRLPLS,0.00,6/6,1/18
KMKQSIEGNPKNWNSIA,DVDSTIE,QQYARLPLF,0.04,6/6,0/18
KHSQVYLYESRNKNSVA,GASTRES,QQYHRLPLS,0.06,6/6,0/18
HSSPSVAYESRNKNSVA,GASTRES,QQYHRLPLS,0.13,6/6,0/18
KVSNSVMLESRNVNAVA,EASTRES,QDYHRLPLS,0.14,6/6,1/18
HISQSFMSESVWRNNIA,HQSTREQ,QQYDRLPFS,0.18,6/6,0/18
KLSQSKLYESRNKNSVA,NASQRLS,QQYHRLPLS,0.20,6/6,2/18
KQYPSYLYESRNKNSVA,QASTRES,QQYHRLPLS,0.24,6/6,0/18
KLSQSVLYESRNWNSVA,NASTRES,QDYHRLPLS,0.26,6/6,0/18
KASQSMLYETRNKNSVA,NASTRES,QQYHRLPLS,0.28,6/6,2/18
KSSISYLTEKRNKNSVA,EASTRES,QQYHRLPLS,0.34,6/6,1/18
KLPQSDLYESRNKNSVA,GASTRES,QQYHRLPLS,0.47,6/6,2/18
KMEQGVDYESRNKGSVA,GASVRES,QQYHRLPLS,0.47,6/6,0/18
KLSWSVPYESRNLNNVA,HGSTRCS,QQYHRLPLS,0.50,6/6,1/18

Continued, with the values leading:

mean log10 Kd (nM),seen in,signal with controls,CDR-L1,CDR-L2,CDR-L3
0.52,6/6,0/18,KSQQSWLYESRNKNSVA,GASFRES,QQYHRLPLS
0.63,6/6,1/18,MIEQGENEQEQHKNAIA,SGHERPR,QQYYKLPLV
0.69,6/6,3/18,KLGEKNRMNGMANKNVA,ADNTRVD,QEYHRLPLI
0.87,6/6,0/18,MISQVMNTLTHEGNNVA,DLQNREK,QQYFRLPLS
0.87,6/6,1/18,KISQMSRVGSTHSNSIA,EEVTRAK,QQYHRLPLA
0.94,6/6,1/18,QFESHEEEGYQYSNNIA,NGEQRFS,QQYVKLPLV
1.00,6/6,0/18,KLVQSHLYESRNKNSVA,EASTREQ,QQYHRLPLS
1.02,6/6,0/18,KIDGQRSYQGGRERAIA,DATIRFR,QQYARLPLV
1.09,6/6,0/18,KLLQAVVGETYQKNNVA,HNSTRED,QEYARLPLS
1.16,6/6,1/18,KISMLYNFASTNKNSIA,EMTTRES,QHYHRLPLS
1.22,1/6,0/18,KFSQSVLYESSNKNSLA,WASTRES,QQYHRLPLS
1.24,6/6,0/18,MFSQLTYTGSRARNAVA,QASLREN,QQYHHLPLI
1.25,6/6,1/18,TIGQTLMSGVRNRSNVA,EVSQRLN,QQYDRLPLL
1.32,5/6,2/18,KIGFGTNGEKFQSNSVA,QASTREE,QQYHRLPLS
1.55,6/6,1/18,KSSQEVLYESRDKYSVA,RASTRES,QQYHRLPLS
1.69,5/6,0/18,RSQQSFLYESRNKNAVA,WASTRES,QQYHRLPLS
1.70,2/6,0/18,KSSQSVEYESENKNSVA,WASTRES,QQYHRLPLY
1.80,5/6,0/18,FITGNYYDKYQASNSIA,DEAHLMA,QQYDLLPLS
2.01,1/6,0/18,MVSQLMLWGMHVKNSIA,EAVTRYN,QQYDRLPLF
2.28,4/6,0/18,KVSGSELEESRNKNSVA,WASKREE,QQYHRLPLS
2.47,3/6,0/18,ILYDSVLGLSRNKNSVA,DNSTRES,QQYDRLPLS
2.94,3/6,1/18,KLQTLTNTANIGESSVA,DVNVHVD,QQYFRLPLS
no signal,0/6,0/18,SMMFDTSDNYHERNNIA,EQATIMA,QQYSWLPLS
no signal,0/6,0/18,FMEMDFDGNDVNRNSIA,SSEVVTR,QHYARLPLS

Top 4 of the variants detected in all replicates, tightest first:

CDR-L1,CDR-L2,CDR-L3,mean log10 Kd (nM),seen in,signal with controls
KLSQSVMYESRNPNSVA,NASTRES,QQYHRLPLS,-0.40,6/6,0/18
KFSQSVLYESRNKNSVA,HASQRES,QQYHRLPLS,-0.37,6/6,1/18
KLEQSWGYESRNKNSVA,NASTRES,QQYHRLPLS,-0.34,6/6,1/18
IMSDSQERDASRLRNIA,DQTTRAM,QQYARLPLS,-0.30,6/6,1/18

A sequence measured in both rounds can read differently, since the two assays cover different ranges. The authors averaged sequences with at least three values out of six and counted those with two or fewer as poor binders. As a blank, each scFv also met three strains without target: over all light chain designs, 4% of these pairings were detected, typically at 2.64 and seldom below 1.59. The control count says in how many pairings with the empty strains this scFv gave a signal.

From the AlphaSeq antibody data of Li et al. 2023 (doi:10.1038/s41467-023-39022-2), copy in the FLAb collection.